Test: physchem

For `COc1c2ccoc2cc2oc(=O)ccc12` [5-MOP, 5-Methoxypsoralen], the chromatographic logP was 2.15.

Reference: patent US7772408B1, “Substituted 5-alkoxypsoralens as inhibitors of potassium channel activity in lymphocytes and other cells” (The Regents of the University of California, priority 2002, dated 2010)
